# Reference: US10100095B2, “Resistant mutant 90 kDa heat shock protein” (TAIHO PHARMACEUTICAL CO., LTD., priority 2013, dated 2018)
# By UniProt entry, the sequences of proteins in these tests, tags left out. Where a name states a change or a piece, a line headed by the entry shows the natural chain unless it says otherwise. Residues count along the entry.
# UniProt P07900, 2-236 Q23E limits assumed: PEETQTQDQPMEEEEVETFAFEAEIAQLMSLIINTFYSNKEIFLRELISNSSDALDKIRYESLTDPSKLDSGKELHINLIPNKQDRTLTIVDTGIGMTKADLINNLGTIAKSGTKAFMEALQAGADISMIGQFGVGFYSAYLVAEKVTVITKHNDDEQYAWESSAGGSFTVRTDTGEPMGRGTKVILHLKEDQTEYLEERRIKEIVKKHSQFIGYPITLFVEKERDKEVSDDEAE
# UniProt P07900, 2-236 F138L limits assumed: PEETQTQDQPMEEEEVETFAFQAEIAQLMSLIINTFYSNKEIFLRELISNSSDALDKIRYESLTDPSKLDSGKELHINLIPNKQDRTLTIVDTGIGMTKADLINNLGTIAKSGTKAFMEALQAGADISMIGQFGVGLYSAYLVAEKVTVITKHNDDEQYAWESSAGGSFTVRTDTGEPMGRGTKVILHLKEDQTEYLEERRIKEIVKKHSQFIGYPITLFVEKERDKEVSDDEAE
# UniProt P07900, 2-236 Y139F limits assumed: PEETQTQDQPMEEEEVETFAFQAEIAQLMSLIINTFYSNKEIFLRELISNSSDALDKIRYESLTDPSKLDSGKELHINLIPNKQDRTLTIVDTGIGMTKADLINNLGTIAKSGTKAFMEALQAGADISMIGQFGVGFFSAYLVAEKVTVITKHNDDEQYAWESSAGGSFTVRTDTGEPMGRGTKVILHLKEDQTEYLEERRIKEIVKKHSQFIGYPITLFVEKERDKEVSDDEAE
# UniProt P07900, 2-236 limits assumed: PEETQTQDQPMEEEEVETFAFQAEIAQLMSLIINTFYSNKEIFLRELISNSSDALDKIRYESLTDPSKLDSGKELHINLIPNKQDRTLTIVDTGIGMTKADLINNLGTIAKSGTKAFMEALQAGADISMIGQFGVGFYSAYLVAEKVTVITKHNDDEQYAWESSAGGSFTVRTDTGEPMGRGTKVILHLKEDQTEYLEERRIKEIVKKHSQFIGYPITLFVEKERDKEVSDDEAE
# How the values were obtained:
# [1] = target: wild-type HSP90α class A N-terminal protein (Homo sapiens, UniProt P07900); test: Fluorescence polarization assay, inhibition of Cy3B-labeled geldanamycin binding, wild-type HSP90; conditions: read-out: IC50 (nM) WT, 40 nM Cy3B-labeled geldanamycin, room temperature, 2 hours
# [2] = target: mutant HSP90Q23E (HSP90α class A N-terminal protein) (Homo sapiens, UniProt P07900, Q23E); test: Fluorescence polarization assay, inhibition of Cy3B-labeled geldanamycin binding, mutant Q23E
# [3] = target: mutant HSP90F138L (HSP90α class A N-terminal protein) (Homo sapiens, UniProt P07900, F138L); test: Fluorescence polarization assay, inhibition of Cy3B-labeled geldanamycin binding, mutant F138L
# [4] = target: mutant HSP90Y139F (HSP90α class A N-terminal protein) (Homo sapiens, UniProt P07900, Y139F); test: Fluorescence polarization assay, inhibition of Cy3B-labeled geldanamycin binding, mutant Y139F
smiles,measurement,setting,value
CCNc1cc(C(N)=O)ccc1-n1nc(C(F)(F)F)c2c(-n3cnc(-c4cnn(C)c4)c3)ccnc21,IC50,[1],600 nM
same,Ratio (vs WT) Q23E,[2]; IC50 of mutant Q23E / IC50 of wild-type,1.4
same,IC50,"[2]; read-out: IC50 (nM) Q23E, mutant Q23E, 40 nM Cy3B-labeled geldanamycin, room temperature, 2 hours",859 nM
same,Ratio (vs WT) F138L,[3]; IC50 of mutant F138L / IC50 of wild-type,2.2
same,IC50,"[3]; read-out: IC50 (nM) F138L, mutant F138L, 40 nM Cy3B-labeled geldanamycin, room temperature, 2 hours",1340 nM
same,Ratio (vs WT) Y139F,[4]; IC50 of mutant Y139F / IC50 of wild-type,0.35
same,IC50,"[4]; read-out: IC50 (nM) Y139F, mutant Y139F, 40 nM Cy3B-labeled geldanamycin, room temperature, 2 hours",211 nM
